Assay results: patent publication US20250304600A1, “PHARMACEUTICAL COMPOUNDS AND COMPOSITIONS AS c-KIT KINASE INHIBITORS” (Enanta Pharmaceuticals, Inc., priority 2023, published 2025)

Amino acid sequences for entries named in this document (tags omitted). Residues count along the entry.
UniProt P10721, 544-976 limits assumed: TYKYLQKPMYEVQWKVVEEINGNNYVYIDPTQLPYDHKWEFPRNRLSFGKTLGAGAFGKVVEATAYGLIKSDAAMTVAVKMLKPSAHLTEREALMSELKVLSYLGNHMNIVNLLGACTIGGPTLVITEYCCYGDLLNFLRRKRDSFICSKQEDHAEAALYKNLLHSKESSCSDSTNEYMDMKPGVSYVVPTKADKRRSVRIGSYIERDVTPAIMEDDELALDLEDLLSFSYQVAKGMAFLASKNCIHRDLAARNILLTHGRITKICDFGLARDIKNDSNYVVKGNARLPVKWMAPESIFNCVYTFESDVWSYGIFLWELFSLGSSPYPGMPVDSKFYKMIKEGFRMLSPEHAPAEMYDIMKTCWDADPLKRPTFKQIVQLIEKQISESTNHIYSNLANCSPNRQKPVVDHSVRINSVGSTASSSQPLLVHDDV

Key:
[1] = system: M-07e cells which endogenously express human c-KIT; experiment: M-07e cellular assay: SCF-mediated cell proliferation (CellTiter Glo); conditions: read-out: M-07e EC50, SCF-mediated proliferation of M-07e cells, 72 hours
[2] = biological target: Recombinant human c-KIT kinase (Homo sapiens, UniProt P10721); experiment: c-KIT kinase chemiluminescence assay (ADP-Glo); conditions: read-out: c-Kit IC50, ATP 50 μM

SMILES | EC50 [1] | IC50 [2]
Cc1ccc(-c2nc([C@H]3C[C@@H]3F)c[nH]2)cc1NC(=O)c1cnn2ccc(N3CC4(COC4)C3)cc12 | < 100 nM | –
O=C(Nc1cc(-c2noc([C@H]3C[C@@H](OC(F)F)C3)n2)cnc1Cl)c1cnn2ccc(N3CC4(C3)CC(O)(C(F)(F)F)C4)cc12 | 100 to 1000 nM | > 1 µM
Cc1ccc(-c2nc([C@H]3C[C@@H]3F)co2)cc1NC(=O)c1cnn2ccc(N3CC4(COC4)C3)cc12 | < 100 nM | –
Cc1ccc(-c2noc([C@H]3C[C@@H]3F)n2)cc1NC(=O)c1cnc(-c2ccc3c(c2)c(C)nn3CC(C)(C)O)o1 | < 100 nM | < 0.1 µM
